Results as given in patent publication US20260048036A1, “CRYSTALLINE FORMS OF A GLUCOSYLCERAMIDE SYNTHASE INHIBITOR AND USES THEREOF” (ACELINK THERAPEUTICS, INC., priority 2022, published 2026).
Numbering of substitutions follows the chain as printed.

Sequences of proteins named here, by UniProt entry; tags and fusion partners are left off. A change or cut given only in a name is not applied to a line headed by its entry.
UniProt Q16739: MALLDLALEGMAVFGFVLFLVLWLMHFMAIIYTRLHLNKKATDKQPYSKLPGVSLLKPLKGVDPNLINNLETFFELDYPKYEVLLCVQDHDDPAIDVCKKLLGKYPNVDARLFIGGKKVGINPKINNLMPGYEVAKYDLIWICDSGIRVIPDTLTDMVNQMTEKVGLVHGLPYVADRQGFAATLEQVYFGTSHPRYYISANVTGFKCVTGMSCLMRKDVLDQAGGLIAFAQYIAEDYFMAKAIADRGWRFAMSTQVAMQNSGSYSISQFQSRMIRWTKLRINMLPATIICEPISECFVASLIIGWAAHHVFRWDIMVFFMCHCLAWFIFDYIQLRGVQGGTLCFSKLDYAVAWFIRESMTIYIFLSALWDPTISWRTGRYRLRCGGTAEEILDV

Assays:
[1] = biological target: T1, Glucosylceramide synthase (GCS) (Canis lupus familiaris, UniProt A0A8I3MXG6); test: GCS enzymatic assay with MDCK cell lysate; type: biochemical, canine; settings: MDCK cell lysate as source of GCS; C6-NBD-glucosylceramide by LC-MS/MS
T1 construct: The MDCK, K-562, and L6 cell lines all endogenously express GCS enzyme; host or cells: MDCK (canine kidney) cell lysate
T1 sequence (A0A8I3MXG6 1-394): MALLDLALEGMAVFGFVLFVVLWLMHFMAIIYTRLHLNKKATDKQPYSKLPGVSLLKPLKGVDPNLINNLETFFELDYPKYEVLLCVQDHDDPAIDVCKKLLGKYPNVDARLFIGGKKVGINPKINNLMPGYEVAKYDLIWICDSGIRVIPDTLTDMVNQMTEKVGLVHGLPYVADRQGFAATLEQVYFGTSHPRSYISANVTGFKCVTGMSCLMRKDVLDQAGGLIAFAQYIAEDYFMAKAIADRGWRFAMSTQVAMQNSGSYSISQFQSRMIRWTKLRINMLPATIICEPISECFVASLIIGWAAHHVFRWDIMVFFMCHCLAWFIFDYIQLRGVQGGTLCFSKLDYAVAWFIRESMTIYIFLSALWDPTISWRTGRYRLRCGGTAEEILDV
Source text: In this study, the inventors developed a reliable method to monitor GCS catalytic activity using the fluorescent substrate, C6-NBD-ceramide. The reaction product, C6-NBD-glucosylceramide, could then be detected and quantified by LC-MS/MS. The inventors used this method to test and validate the effect of various GCS inhibitors on GCS enzyme activity from different species.
The MDCK, K-562, and L6 cell lines all endogenously express GCS enzyme and were used to test the effect of various GCS inhibitors on enzyme originating from different species. The GCS enzyme activity was detected by using the fluorescent substrate, C6-NBD-ceramide, and monitoring the formation of the fluorescent reaction product, C6-NBD-glucosylceramide. […]
GCS activity was evaluated using a GCS enzyme assay derived from MDCK or L6 cell lysates.
MDCK or L6 cell lysates were prepared using M-PER in the presence of a protease inhibitor cocktail. […] Protein concentration was determined using Pierce BCA protein assay kit. […]
The quantitative analysis of C6-NBD-glucosylceramide was performed on a Shimadzu ultra-fast liquid chromatography coupled with API 4000 mass spectrometer. […]
(§1) The C6-NBD-glucosylceramide reading was normalized first by dividing the peak area of C6-NBD-glucosylceramide with the peak area of the internal standard, and then the amount was calculated according to the standard curve generated in the same assay run. […]

[2] = biological target: T2, Glucosylceramide synthase (GCS) (Homo sapiens, UniProt Q16739); test: GCS cell-based assay with live K-562 cells; settings: C6-NBD-glucosylceramide by LC-MS/MS
T2 construct: The MDCK, K-562, and L6 cell lines all endogenously express GCS enzyme; host or cells: K-562 human leukemia cells, live
T2 sequence (Q16739 1-394): T1 sequence (A0A8I3MXG6 1-394) with V20L, S196Y
Source text: The reaction product, C6-NBD-glucosylceramide, could then be detected and quantified by LC-MS/MS. The inventors used this method to test and validate the effect of various GCS inhibitors on GCS enzyme activity from different species.
The GCS enzyme activity was detected by using the fluorescent substrate, C6-NBD-ceramide, and monitoring the formation of the fluorescent reaction product, C6-NBD-glucosylceramide. First, the inventors used cell lysate derived from a canine kidney cell line (MDCK, ATCC Cat #CCL-34™) as the source of GCS and tested the inhibitory activity of several control and test compounds.
The quantitative analysis of C6-NBD-glucosylceramide was performed on a Shimadzu ultra-fast liquid chromatography coupled with API 4000 mass spectrometer. Analyst 1.5 software packages were used to control the LC-MS/MS system, as well as for data acquisition and processing.
as §1, with “run. For the cell based assay results, the amount of C6-NBD-glucosylceramide was also normalized by the protein concentration of the cell samples.” for “run.”

CC(C)(NC(=O)O[C@@H]1CN2CCC1CC2)c1csc(-c2ccc(F)cc2)n1 [Venglustat, reference compound]
IC50 [1]: 72.2 nM
IC50 [2]: 511 nM
